System: PSMA^+ PC3 PIP and PSMA^- PC3 flu tumors
Conditions: 1 nmol intravenously, 24 h post-injection

## CC1(C)C(/C=C/C2=C(Oc3ccc(S(=O)(=O)O)cc3)C(=C/C=C3/N(CCCCS(=O)(=O)O)c4ccc(S(=O)(=O)O)cc4C3(C)C)/CCC2)=[N+](CCCCCC(=O)NCCCCC(NC(=O)CCCCCCC(=O)NCCCC[C@H](NC(=O)N[C@@H](CCC(=O)O)C(=O)O)C(=O)O)C(=O)O)c2ccc(S(=O)(=O)[O-])cc21 (stereo partly shown) [YC-27]
  PSMA+ PIP tumor uptake (fluorescence): comparable
